{"sequences": {"note": "Protein sequences, listed by entry. Tags and fused reporters are not part of them. Lines headed by an entry give the natural chain unless they say otherwise; changes in a name come on top.", "UniProt P28838": "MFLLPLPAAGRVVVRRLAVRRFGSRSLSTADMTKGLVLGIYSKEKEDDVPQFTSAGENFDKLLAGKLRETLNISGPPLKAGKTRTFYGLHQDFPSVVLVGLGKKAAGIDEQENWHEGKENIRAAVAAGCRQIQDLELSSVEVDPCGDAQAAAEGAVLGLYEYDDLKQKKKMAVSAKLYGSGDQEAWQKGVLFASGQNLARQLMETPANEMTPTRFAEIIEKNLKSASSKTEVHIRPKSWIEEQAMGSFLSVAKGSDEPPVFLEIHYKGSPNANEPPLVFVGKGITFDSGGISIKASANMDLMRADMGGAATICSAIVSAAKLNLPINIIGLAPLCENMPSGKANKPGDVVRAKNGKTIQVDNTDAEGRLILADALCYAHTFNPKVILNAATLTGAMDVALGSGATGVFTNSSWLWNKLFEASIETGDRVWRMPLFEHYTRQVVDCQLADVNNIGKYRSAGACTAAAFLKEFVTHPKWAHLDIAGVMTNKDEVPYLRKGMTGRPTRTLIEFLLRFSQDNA"}, "source": "paper PMC11184559", "about": "“Identification and Validation of Compounds Targeting Leishmania major Leucyl-Aminopeptidase M17” (ACS Infectious Diseases, 2024)", "key": {"rHsLAP": {"target": "T1, rHsLAP (Homo sapiens, UniProt P28838)", "T1 construct": "purchased Assay Genie, Ireland", "test": "RapidFire-MS selectivity study against human LAP", "type": "biochemical", "conditions": "IC50(HsLAP)/IC50(rLmLAP)", "description": "The reaction mixture included 600 μM (1× appKM) LSTVIVR substrate peptide, 1 mM ZnCl2, and the reaction time was 180 min. The inhibitors were tested at concentrations ranging from 0.78 to 100 μM to determine inhibitory activity."}, "[1]": {"test_system": "L. donovani intracellular amastigotes"}}}
{"smiles": "COc1ccc(Cc2c(N)nc(-c3ccccn3)nc2N)cc1", "note": "[DDD00057570]", "values": [{"measurement": "Selectivity index", "setting": "rHsLAP", "value": ">30"}, {"measurement": "Selectivity index regarding RAW 264.7 cells", "setting": "[1]; CC50 RAW 264.7 / EC50 L. donovani intracellular amastigotes", "value": "> 13"}, {"measurement": "Selectivity index regarding THP-1 cells", "setting": "[1]; CC50 THP-1 / EC50 L. donovani intracellular amastigotes", "value": "> 13"}]}
{"smiles": "O=C(c1cccs1)N(CCCn1ccnc1)c1nc2ccccc2s1", "note": "[DDD00097924]", "values": [{"measurement": "Selectivity index", "setting": "rHsLAP", "value": 3}]}
